Experimental data as given in patent publication EP0728012B1, “NOVEL GnRH ANALOGUES WITH ANTITUMOUR EFFECTS AND PHARMACEUTICAL COMPOSITIONS THEREOF” (Lovas, Sandor, priority 1994, dated 1996).

Conditions: in vivo; once s.c. or i.p. 10-fold of the effective dose (400 µg/animal active substance)

Substance	toxicity
Ac-D-Trp^1,3,D-Cpa^2, {Lys[n-poly(N-vinyl pyrrolidone-co-maleic acid)-Gly-Phe-Leu-Gly-]}^5, [a-Asp(DEA)]^6, D-Ala^10-GnRH [P-GFLG-1892]	non-toxic
Ac-D-Trp^1,3,D-Cpa^2,{Lys(n-poly-(N-vinylpyrrolidone-co-maleic acid)-Gly-Phe-Leu-Gly]}^6,D-Ala^10-GnRH [P-GFLG-1544]	non-toxic
